{"sequences": {"note": "Sequences of proteins named here, by UniProt entry; tags and fusion partners are left off.", "UniProt P35372, whole entry, looked up": "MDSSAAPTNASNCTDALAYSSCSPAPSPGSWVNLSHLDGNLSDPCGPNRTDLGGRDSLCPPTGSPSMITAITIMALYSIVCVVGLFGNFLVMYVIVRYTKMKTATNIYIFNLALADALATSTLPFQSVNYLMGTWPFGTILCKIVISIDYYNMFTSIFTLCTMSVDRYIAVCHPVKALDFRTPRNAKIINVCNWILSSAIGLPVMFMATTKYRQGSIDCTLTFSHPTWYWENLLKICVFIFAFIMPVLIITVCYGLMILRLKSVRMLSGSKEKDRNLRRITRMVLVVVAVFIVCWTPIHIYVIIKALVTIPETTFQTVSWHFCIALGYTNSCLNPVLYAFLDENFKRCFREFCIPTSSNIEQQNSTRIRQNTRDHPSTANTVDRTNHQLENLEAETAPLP"}, "source": "paper PMC3189208", "about": "(PLoS ONE, 2011)", "target": "human mu opioid receptor (MOR1) in HEK-MOR cells (Homo sapiens, UniProt P35372)", "experiment": "whole cell cAMP assay compared with DMR", "type": "cell-based", "details": "ligand 10 µM, deviation from linear correlation", "data": [{"compound": "CN(C(=O)Cc1ccc(Cl)c(Cl)c1)[C@H](CN1CCCC1)c1ccccc1", "note": "[ICI 199,441]", "values": [{"measurement": "bias between DMR response and whole cell cAMP response", "result": "biased towards cAMP"}]}]}
